US5462926A (Biomeasure, Inc., priority 1993, dated 1995)

Sequences of proteins named here, by UniProt entry; tags and fusion partners are left off. A change or cut given only in a name is not applied to a line headed by its entry.
UniProt P52500: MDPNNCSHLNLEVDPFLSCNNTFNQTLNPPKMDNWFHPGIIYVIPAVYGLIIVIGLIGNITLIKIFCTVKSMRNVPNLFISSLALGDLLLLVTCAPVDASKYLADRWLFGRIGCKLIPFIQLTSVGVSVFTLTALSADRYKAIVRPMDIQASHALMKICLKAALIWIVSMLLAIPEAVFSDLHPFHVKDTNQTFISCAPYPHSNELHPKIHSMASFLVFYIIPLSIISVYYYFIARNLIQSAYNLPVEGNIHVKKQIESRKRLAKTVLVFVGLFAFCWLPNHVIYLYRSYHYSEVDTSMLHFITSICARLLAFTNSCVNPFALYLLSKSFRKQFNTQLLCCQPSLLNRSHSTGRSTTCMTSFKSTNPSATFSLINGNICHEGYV

Target: GRP receptor (Rattus norvegicus, UniProt P52500)
Assay: Amylase release from rat pancreatic acini (alone or Bn-stimulated)
Assay type: cell-based
Design: from tissue; host or cells: dispersed pancreatic acini
Description: pancreatic acini or [^3 H]myo[2H]inositolloaded NMBR transfected cell
were incubated either with no additives, the somatostatin octapeptide
analog, Bn, or NMB, or a combination for 30 min at 37° C.. Amylase
release from pancreatic acini was expressed at the indicated percent of
the total cellular amylase released during the incubation. [^3 H]IP i
expressed in dpm's. To test for inhibitory effects, the effect of
somatostatin analog (10 μM) was determined on 0.3 nM Bnstimulated

Compound: CC(C)[C@@H]1NC(=O)[C@H](CCCCN)NC(=O)[C@@H](Cc2c[nH]c3ccccc23)NC(=O)[C@H](Cc2ccc3ccccc3c2)NC(=O)[C@@H](NC(=O)[C@H](N)Cc2ccccc2)CSSC[C@@H](C(=O)N[C@H](C(N)=O)[C@@H](C)O)NC1=O [Analog #18]
- Amylase Release, analog Alone (10 μM) (analog 10 μM alone, control 4 ± 1): 3 ± 1 % total
- Amylase Release, analog Plus Bn (0.3 nM) (analog 10 μM plus Bn 0.3 nM, Bn without analog 15 ± 1): 14 ± 1 % total
- IC50 (read-out: IC50 Amylase Release, GRP Receptor, Rat Pancreatic Acini): > 10 µM
